Consider one compound from US20240217973A1, “IMIDAZOPYRIDINE COMPOUNDS AND USE THEREOF” (MEDSHINE DISCOVERY INC., priority 2021, published 2024).

Sequences of proteins named here, by UniProt entry; tags and fusion partners are left off.
UniProt P33261, whole entry: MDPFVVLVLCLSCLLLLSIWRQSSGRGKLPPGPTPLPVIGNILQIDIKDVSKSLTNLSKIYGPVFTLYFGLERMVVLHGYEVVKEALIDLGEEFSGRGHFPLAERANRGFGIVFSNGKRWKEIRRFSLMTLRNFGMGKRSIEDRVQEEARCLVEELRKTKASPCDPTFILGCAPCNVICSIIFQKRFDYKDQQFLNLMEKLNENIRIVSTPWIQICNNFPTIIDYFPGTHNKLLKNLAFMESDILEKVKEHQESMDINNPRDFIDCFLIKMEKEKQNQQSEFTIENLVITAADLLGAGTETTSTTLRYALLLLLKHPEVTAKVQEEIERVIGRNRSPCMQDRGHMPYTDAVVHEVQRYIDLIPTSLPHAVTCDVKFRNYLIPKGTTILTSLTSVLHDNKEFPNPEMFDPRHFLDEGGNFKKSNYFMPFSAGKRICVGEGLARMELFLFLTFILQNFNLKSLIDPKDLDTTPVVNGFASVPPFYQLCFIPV
UniProt P11712, whole entry: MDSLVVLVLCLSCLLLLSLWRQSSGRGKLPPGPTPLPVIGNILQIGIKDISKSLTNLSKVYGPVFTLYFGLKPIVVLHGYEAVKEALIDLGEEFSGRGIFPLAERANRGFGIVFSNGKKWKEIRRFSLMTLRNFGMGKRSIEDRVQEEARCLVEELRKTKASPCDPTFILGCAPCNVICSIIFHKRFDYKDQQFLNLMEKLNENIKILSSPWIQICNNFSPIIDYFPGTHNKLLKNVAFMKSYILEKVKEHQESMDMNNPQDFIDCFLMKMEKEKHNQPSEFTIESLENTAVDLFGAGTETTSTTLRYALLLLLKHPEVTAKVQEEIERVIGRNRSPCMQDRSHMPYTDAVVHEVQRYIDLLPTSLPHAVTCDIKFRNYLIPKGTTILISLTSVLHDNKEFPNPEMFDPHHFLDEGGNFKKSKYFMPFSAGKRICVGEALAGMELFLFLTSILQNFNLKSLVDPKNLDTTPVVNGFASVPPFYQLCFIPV
UniProt P10635, whole entry: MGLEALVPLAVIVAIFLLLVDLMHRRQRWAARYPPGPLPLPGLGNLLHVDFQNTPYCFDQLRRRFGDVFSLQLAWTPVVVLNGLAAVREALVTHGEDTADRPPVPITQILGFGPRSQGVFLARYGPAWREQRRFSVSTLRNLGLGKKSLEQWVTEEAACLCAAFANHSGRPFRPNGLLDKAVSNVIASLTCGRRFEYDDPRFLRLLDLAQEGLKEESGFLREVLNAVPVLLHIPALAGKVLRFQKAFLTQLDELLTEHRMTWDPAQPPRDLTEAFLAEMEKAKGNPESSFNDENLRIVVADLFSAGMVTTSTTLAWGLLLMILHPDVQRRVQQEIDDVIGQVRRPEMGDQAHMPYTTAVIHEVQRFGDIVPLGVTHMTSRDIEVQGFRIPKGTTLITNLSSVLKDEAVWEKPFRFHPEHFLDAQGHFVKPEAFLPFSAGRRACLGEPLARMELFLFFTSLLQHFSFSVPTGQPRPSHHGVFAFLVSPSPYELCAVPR
UniProt P08684, whole entry: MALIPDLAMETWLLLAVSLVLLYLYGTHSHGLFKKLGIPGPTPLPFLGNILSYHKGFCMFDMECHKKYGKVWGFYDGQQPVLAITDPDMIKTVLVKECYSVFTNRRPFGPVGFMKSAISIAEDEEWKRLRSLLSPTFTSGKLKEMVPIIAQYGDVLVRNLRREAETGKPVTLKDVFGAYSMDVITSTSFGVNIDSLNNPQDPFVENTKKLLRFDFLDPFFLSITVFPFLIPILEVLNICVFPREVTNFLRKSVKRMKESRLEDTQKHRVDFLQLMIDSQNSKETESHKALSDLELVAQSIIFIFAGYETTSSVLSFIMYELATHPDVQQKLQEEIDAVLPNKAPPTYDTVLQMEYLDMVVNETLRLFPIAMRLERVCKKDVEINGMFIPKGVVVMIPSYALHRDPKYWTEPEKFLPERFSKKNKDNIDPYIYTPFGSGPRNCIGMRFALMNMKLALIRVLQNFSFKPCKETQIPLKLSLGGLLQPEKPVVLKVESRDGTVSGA

In series [1] the test system is plasma proteins. The series is described as follows: Plasma protein binding experiment (PPB), H. As to conditions: 2 μM, 4 hours dialysis. Here is the method:
Experimental operation: 995 μL of blank plasma of each genus was taken, 5 μL of working solution of test compound (400 μM) or working solution of warfarin (400 μM) was added, so that the final concentrations of the test compound and warfarin in the plasma sample was 2 μM. The sample was mixed thoroughly. The final concentration of the organic phase DMSO was 0.5%; 50 μL of plasma samples of the test compound and warfarin were pipetted into the sample receiving plate (three parallels), and the corresponding volume of the corresponding blank plasma or buffer was immediately added so that the final volume of each sample well was 100 μL, with a volume ratio of 1:1 for plasma: dialysis buffer, and then 500 μL of stop solution was added to these samples, and these samples would be used as a T0 sample for the recovery and stability determination. […] All samples were analyzed by LC/MS/MS after protein precipitation, and the protein binding rate and recovery rate were calculated by the formula: % Unbound=100*F/T, % Bound=100−% Unbound, % Recovery 100*(F+T) T0 (where F was the peak area ratio of the compound in the dialysate after 4 hours of dialysis; T was the peak area ratio of the compound in the plasma after 4 hours of dialysis, and T0 was the peak area ratio of the compound in the plasma sample at zero time).

The nature of series [2]: Hepatocyte metabolic stability experiment (HMS), H. As to conditions: H hepatocytes, 1 μM. As to the method: (§1) Experimental operations: 198 μL of hepatocyte suspension (0.51×10^6 cells/mL) was added to the preheated incubation plate, and 198 μL of culture medium without hepatocytes was added to T0-MC and T120-MC incubation plates for the culture medium control group, and all incubation plates were pre-incubated for 10 minutes in a 37° C. incubator. Then 2 μL of the working solution of the test and control compounds were added and mixed well, and the incubation plate was immediately put into the plate shaker in the incubator, the rotation speed was adjusted to about 650 rpm, and the timer and the reaction were started. 2 duplicate samples for each compound were prepared at each time point. Incubation conditions: 37° C., saturated humidity, and containing 5% CO2. In the test system, the final concentration of the test compound was 1 μM, the final concentration of the control compound was 3 μM, the final concentration of hepatocytes was 0.5×10^6 cells/mL, and the final concentration of the total organic solvent was 0.96%, of which the final concentration of DMSO was 0.1%. […] All samples were mixed and analyzed by LC-MS/MS method. […]

Series [3] in a line: Hepatocyte metabolic stability experiment (HMS), R. As to conditions: R hepatocytes, 1 μM. As to the method: as §1
In series [4] the target is CYP2C19 (Homo sapiens (Human), UniProt P33261). The series is described as follows: Inhibition of cytochrome P450 enzyme in vitro, human liver microsomes. The class given is in vitro ADME. The note with it: read-out: CYP450 IC50 2C19. As to the method: (§2) To investigate the activity of compounds on human liver microsomal CYP450 enzyme, the compounds were tested for the inhibitory effect of five major subtypes of human hepatocyte CYP450 enzymes (CYP1A2, 2C9, 2C19, 2D6 and 3A4) using LC-MS/MS method. The IC50 value was used as an indicator for compound screening and analysis. • 1) Working solutions of test compounds and standard inhibitors were prepared (100×); • 2) The microsomes were removed from the −80° C. refrigerator, thawed on ice, labeled with the date, and returned to the refrigerator immediately after use; • 3) 20 μL of substrate solution was added to the corresponding well; • 4) 20 μL of phosphate buffer salt solution was added to the blank well; • 5) 2 μL of test compound and positive control working solution were added into the corresponding wells; • 6) 2 μL of solvent was added to the wells without the inhibitors and blank wells; • 7) Working solution of human liver microsome was prepared; • 8) 158 μL of HLM working solution was added to all wells of the incubation plate; • 9) The plate was preheated in a 37° C. water bath for about 10 minutes; • 10) NADPH cofactor solution was prepared; • 11) 20 μL of NADPH cofactor was added to all incubation wells; • 12) All CYP was mixed and incubated in a 37° C. water bath for 10 minutes; • 13) At the time point, the reaction was terminated by adding 400 μL of cold solution (200 ng/ml acetonitrile solution of tolbutamide and 200 ng/ml acetonitrile solution of Labetalol); • 14) The sample was centrifuged at 4000 rpm for 20 minutes to precipitate proteins; • 15) 200 μL of supernatant was transferred into 100 μL of high performance liquid chromatography water and shaked well for 10 minutes; • 16) LC/MS/MS analysis was started.
Background: Microsomes from liver hold many membrane-bound enzymes, among them those of drug oxidation.

The target of series [5] is CYP2C9 (Homo sapiens (Human), UniProt P11712). The description is as above. The note with it: read-out: CYP450 IC50 2C9. The format is in vitro ADME. As to the method: as §2
Series [6] concerns the target CYP2D6 (Homo sapiens (Human), UniProt P10635). The description is as above. The note with it: read-out: CYP450 IC50 2D6. The class given is in vitro ADME. Here is the method: as §2
The target in series [7] is CYP3A4 (Homo sapiens (Human), UniProt P08684). Described as above. The format is in vitro ADME. As to conditions: read-out: CYP450 IC50 3A4. Here is the method: as §2

Broadly, the IC50 is the midpoint of a concentration-inhibition curve. Regarding `Nc1nccc2c1n(-c1ccc(Oc3ccccc3)cc1)c(=O)n2C1CCN(C(=O)/C=C/CF)C1` (single isomer, unassigned) [Compound 003B], the “Unbound PPB” value in series [1] came out at 10.7%. In addition, the figures for the “HMS CLint(liver)” value in series [2] and in series [3] were 2.39 L/h/kg and 17.8 L/h/kg, respectively. For the same compound, the IC50 in series [4] was 31 µM; in series [5], 20.7 µM; in series [6], above 50 µM; in series [7], above 50 µM.
